Tmax data for one compound are collected here from PMC6843736 (Molecular Pain, 2019).

Structures are written as SMILES.

The nature of this series: Pharmacokinetic/toxicokinetic study and BBB permeability in rats. Format: in vivo. The note with it: male, Sprague-Dawley, rat, brain, ip, 10 mg/kg.

With `CN(CCOc1ccc(CC2SC(=O)NC2=O)cc1)c1ccccn1` (stereo not shown) [Rosiglitazone, rosiglitazone, reference compound], the Tmax came out at 1 h.

The term Tmax denotes the time from dosing to the highest level.
